Target: Cathepsin S (Homo sapiens, UniProt P25774)
Assay: Cathepsin S inhibition assay (fluorogenic peptide substrate)
Assay type: biochemical
Details: Table II, compounds of Formula I; read-out: Ki Cat. S
Protocol: “Inhibition constant”, Ki, is the dissociation constant of the enzyme-inhibitor complex, or the reciprocal of the binding affinity of the inhibitor to the enzyme. […] The inhibited rates are then fit by nonlinear regression to the following equation: […]
The assumption being made for the classical inhibition described above is that the free inhibitor concentration is equal to the total inhibitor concentration.
Kinetic measurements are performed in a total reaction volume of 30 μl in 384-well microtiter plates. […] Control reactions in the absence of inhibitor are performed in replicates of 24. The reactions are initiated by adding the substrate, acetyl-histidine-proline-valine-lysine-amino carbamoyl coumarin, to a final concentration of 50 μM. The rate of substrate hydrolysis is measured by monitoring the increase in fluorescence at an excitation wavelength of 380 nm and an emission wavelength of 450 nm that results from cleavage of the aniline bond in the substrate by the enzyme.

Amino acid sequences for entries named in this document (tags omitted). Residues count along the entry.
UniProt P25774, 115-331, species assumed: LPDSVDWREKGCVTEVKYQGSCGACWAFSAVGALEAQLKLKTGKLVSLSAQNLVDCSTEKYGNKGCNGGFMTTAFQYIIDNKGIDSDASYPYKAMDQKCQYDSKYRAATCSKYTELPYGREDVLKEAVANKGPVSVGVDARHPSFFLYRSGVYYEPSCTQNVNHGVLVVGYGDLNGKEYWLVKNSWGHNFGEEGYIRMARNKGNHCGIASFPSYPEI

Work on “(S)-3-Bromo-N-{1-[2-(4-methoxy-phenylamino)-ethylcarbamoyl]-2-phenyl-ethyl}-4-methyl-benzamide [Compound 24]” yielded a Ki of less than 100 nM.

Source: US7109243B2 (IRM LLC, priority 2003, dated 2006)
